From ChEMBL document CHEMBL1135401, “Pharmacophore mapping of a series of 2,4-diamino-5-deazapteridine inhibitors of Mycobacterium avium complex dihydrofolate reductase” (J Med Chem, 2002)

Biological target: T1, Dihydrofolate reductase (Mycobacterium avium, UniProt O30463)
T1 sequence (O30463 whole entry): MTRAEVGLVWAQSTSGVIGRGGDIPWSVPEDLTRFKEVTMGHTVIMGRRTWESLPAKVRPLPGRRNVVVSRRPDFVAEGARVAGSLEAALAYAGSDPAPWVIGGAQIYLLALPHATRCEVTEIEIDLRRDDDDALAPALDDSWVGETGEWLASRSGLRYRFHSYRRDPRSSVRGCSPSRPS
Assay: Antimycobacterial activity against Mycobacterium avium complex dihydrofolate reductase (MAC DHFR)

Row | SMILES | pIC50
1 | Cc1cc(Cl)ccc1NCc1cnc2nc(N)nc(N)c2c1C | 9.72
2 | CCOc1ccc(OCC)c(NCc2cnc3nc(N)nc(N)c3c2C)c1 | 9.08

pIC50: −log10 of the molar value.
